Data on one compound can be found in patent US11279687B2, “Compounds and compositions for the inhibition of NAMPT” (Valo Health, Inc., priority 2010, dated 2022).

Chains of the proteins cited; added tags and fusions are not shown. Lines headed by an entry give the natural chain unless they say otherwise; changes in a name come on top.
UniProt P43490: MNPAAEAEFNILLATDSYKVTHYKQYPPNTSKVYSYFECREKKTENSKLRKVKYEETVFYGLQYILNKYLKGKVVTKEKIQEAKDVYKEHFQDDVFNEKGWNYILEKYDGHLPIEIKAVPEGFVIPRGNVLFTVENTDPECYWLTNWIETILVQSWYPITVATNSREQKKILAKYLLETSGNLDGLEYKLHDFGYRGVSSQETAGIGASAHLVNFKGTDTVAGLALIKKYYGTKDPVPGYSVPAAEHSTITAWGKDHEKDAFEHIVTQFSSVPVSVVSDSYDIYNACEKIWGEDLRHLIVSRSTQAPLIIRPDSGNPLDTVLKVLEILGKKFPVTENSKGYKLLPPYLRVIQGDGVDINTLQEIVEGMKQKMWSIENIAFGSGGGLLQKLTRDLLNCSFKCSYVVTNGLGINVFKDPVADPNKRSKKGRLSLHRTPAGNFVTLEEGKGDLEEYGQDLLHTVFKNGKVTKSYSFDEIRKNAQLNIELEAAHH

This assay deals with NAMPT (Homo sapiens (Human), UniProt P43490). The assay is described as follows: NAMPT biochemical inhibition assay (NMN quantified by mass spectrometry). To be noted: read-out: Biochem IC50.

Regarding `Nc1ccc(CNC(=O)Nc2ccc(S(=O)(=O)c3ccccc3)cc2)cn1` [1-[(6-aminopyridin-3-yl)methyl]-3-[4-(benzenesulfonyl)phenyl]urea], the IC50 amounted to 3 nM.

One may read the IC50 as the concentration that inhibits the measured activity by half.
